Laboratory results taken from ChEMBL document CHEMBL1135957, “Novel 1',1'-chain substituted Delta(8)-tetrahydrocannabinols” (Bioorg Med Chem Lett, 2002).

Amino acid sequences for entries named in this document (tags omitted).
UniProt P20272, whole entry: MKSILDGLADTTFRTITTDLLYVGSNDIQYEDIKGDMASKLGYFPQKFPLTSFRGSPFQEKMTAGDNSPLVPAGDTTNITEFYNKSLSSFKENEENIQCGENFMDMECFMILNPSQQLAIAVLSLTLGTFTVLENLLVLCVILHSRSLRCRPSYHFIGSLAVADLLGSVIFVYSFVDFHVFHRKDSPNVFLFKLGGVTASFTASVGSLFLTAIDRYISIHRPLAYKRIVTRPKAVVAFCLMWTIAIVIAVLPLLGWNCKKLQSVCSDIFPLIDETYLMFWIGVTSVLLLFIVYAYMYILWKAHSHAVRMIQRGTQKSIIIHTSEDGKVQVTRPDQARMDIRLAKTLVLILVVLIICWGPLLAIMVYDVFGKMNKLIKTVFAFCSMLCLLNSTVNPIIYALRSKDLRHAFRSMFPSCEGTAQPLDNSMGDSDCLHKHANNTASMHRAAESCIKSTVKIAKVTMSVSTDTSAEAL

Target: Cannabinoid receptor 1 (Rattus norvegicus, UniProt P20272)
Experiment: Binding affinity for Cannabinoid receptor 1 by the ability to displace radiolabeled CP-55940 from purified rat forebrain synaptosomes
Type: subcellular, Brain

Q: With `C=C(C)[C@@H]1CCC(C)=C[C@H]1c1c(O)cc(CCCCC)cc1O` [CANNABIDIOL] as the compound, how does the Ki read?
A: The Ki was 1.27 µM.
